# Experimental data taken from ChEMBL document CHEMBL5150013, “The Repertoire of Small-Molecule PET Probes for Neuroinflammation Imaging: Challenges and Opportunities beyond TSPO” (J Med Chem, 2021).
# By UniProt entry, the sequences of proteins in these tests, tags left out. Where a name states a change or a piece, a line headed by the entry shows the natural chain unless it says otherwise.
# UniProt Q08499: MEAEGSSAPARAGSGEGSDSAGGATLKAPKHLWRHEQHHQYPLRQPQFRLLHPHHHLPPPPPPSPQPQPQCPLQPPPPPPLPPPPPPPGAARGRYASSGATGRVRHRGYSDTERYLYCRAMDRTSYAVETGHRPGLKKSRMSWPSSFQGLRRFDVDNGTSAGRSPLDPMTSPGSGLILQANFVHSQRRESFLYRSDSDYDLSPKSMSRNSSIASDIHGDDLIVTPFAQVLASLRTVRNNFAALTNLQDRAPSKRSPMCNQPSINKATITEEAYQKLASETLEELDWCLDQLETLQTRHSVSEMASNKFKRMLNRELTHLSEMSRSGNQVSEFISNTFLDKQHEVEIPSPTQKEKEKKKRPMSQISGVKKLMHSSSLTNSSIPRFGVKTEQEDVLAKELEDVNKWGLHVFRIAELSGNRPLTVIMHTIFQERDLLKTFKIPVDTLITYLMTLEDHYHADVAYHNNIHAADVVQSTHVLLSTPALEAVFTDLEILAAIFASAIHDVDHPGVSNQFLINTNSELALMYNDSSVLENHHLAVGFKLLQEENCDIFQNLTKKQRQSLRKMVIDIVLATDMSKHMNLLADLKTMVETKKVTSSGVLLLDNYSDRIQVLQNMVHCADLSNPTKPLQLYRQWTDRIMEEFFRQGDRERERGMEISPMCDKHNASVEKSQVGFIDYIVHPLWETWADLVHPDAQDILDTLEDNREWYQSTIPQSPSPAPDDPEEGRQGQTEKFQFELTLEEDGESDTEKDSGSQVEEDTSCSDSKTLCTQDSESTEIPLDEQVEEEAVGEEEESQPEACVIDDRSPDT
# UniProt P23219, whole entry: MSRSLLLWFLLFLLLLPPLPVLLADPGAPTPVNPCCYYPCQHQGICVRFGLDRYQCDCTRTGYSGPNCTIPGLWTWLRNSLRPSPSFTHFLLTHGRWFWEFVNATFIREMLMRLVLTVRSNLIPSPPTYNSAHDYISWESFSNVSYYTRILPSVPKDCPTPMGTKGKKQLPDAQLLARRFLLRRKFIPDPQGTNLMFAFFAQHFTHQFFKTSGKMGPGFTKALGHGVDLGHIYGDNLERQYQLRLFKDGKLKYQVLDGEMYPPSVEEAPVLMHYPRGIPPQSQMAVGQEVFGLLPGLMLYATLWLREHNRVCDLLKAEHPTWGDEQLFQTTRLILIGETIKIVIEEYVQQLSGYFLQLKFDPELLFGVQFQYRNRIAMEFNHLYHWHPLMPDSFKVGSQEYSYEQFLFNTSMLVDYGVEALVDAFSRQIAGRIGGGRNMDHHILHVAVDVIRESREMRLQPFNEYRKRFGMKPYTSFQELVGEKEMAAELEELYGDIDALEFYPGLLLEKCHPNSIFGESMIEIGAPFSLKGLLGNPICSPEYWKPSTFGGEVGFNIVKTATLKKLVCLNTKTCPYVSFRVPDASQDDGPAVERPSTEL
# UniProt P21453, whole entry: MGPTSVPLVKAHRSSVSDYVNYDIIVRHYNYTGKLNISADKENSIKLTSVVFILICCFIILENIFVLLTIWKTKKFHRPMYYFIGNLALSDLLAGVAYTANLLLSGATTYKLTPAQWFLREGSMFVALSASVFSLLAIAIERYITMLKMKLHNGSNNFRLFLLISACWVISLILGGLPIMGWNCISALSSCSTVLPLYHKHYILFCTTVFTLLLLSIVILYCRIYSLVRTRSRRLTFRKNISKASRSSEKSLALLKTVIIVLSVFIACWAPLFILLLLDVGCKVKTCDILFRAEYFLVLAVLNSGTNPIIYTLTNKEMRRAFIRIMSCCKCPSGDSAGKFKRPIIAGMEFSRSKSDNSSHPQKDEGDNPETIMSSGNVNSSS
# UniProt Q9H244: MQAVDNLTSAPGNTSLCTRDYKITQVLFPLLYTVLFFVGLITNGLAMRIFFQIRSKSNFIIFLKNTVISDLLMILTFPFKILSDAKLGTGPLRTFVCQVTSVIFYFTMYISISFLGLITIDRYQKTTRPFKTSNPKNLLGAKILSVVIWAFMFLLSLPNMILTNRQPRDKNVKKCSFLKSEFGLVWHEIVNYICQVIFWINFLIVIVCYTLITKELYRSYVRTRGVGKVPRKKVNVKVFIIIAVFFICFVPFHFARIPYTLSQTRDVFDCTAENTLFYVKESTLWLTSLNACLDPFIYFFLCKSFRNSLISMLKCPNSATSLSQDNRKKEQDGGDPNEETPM
# Legend:
# [1] = target: 3',5'-cyclic-AMP phosphodiesterase 4D (Homo sapiens, UniProt Q08499)
# [2] = target: Prostaglandin G/H synthase 1 (Homo sapiens, UniProt P23219)
# [3] = target: Sphingosine 1-phosphate receptor 1 (Homo sapiens, UniProt P21453)
# P2Y purinoceptor 12 = P2Y purinoceptor 12 (Homo sapiens, UniProt Q9H244)
SMILES,IC50 [1] [nM],IC50 [2] [nM],further results
[11CH3]Oc1ccc(Cc2ccncc2)nc1-c1cccc([N+](=O)[O-])c1,2.8,,
COc1ccc(-c2nc(O[11CH3])nn2-c2ccc(OC)cc2)cc1,,5,
CCCCCCCCc1ccc(CCC(N)(CO)CO)cc1 [FINGOLIMOD],,,IC50 [3]: 604 nM
COc1ccc(-n2nc(OCC(F)(F)F)nc2-c2ccc(O[11CH3])cc2)cc1,,1,
CCOC(=O)c1cc(C#N)c(N2CC(N[11C](=O)NS(=O)(=O)c3ccc(Cl)s3)C2)nc1C,,,IC50 (P2Y purinoceptor 12): 6 nM
[11CH3]Oc1ccc(Cc2ccncc2)nc1-c1cccc(Cl)c1,5.12,,
